# Tested on: TH-positive neurons of mutant LRRK2 flies
# Assay: Anti-TH whole-mount brain immunostaining and counting of TH-positive neurons
# Format: in vivo, Drosophila melanogaster
# Details: mutant LRRK2 flies treated with L-DOPA; data not shown
# Protocol: Fluorescent immunostaining was performed on whole-mount dissected adult brain (23, 35) at 1, 21, 35, and 49 weeks of age. Cohorts of six to eight flies per genotype were used at each time point for immunostaining. The dissected brains were mounted in Vectashield (Vector Laboratories). Rabbit polyclonal anti-TH (Chemicon), mouse monoclonal anti-TH (Immunostar), anti-5-HT (Sigma), anti-elav (Developmental Studies Hybridoma Bank), and anti-Flag-antibodies were used as the primary antibodies. Alexa Fluor 488 goat anti-mouse IgG and Alexa Fluor 568 goat anti-mouse IgG (Invitrogen) were used as secondary antibodies. The numbers of DA and 5-HT neurons were scored in whole-mount brains under fluorescent (Zeiss LSM 250) and/or confocal microscopy (Zeiss LSM 510). For quantification of loss of anti-elav staining in brain, entire brain sections were digitized with an image analysis system. NIH Image J software was used to measure the optical density of anti-elav staining within the entire brain section (six brain sections per experimental group).
structure (smiles),measurement,value
N[C@@H](Cc1ccc(O)c(O)c1)C(=O)O [L-DOPA],loss of TH-positive neurons,did not prevent

# From patent publication US20100175140A1, “Leucine-rich repeat kinase (LRRK2) drosophila model for parkinson's disease: wildtype1 (WT1) and G2019S mutant flies” (The Johns Hopkins University, priority 2008, published 2010)
